The values below are quoted from earlier work in patent US5034212A, “Method of imaging using a radioactive glucosamine derivative” (Nihon Medi-Physics Co., Ltd., priority 1989, dated 1991).

For this series, the system named is hexokinase. Particulars: cited from earlier work.

Take `OC[C@H]1OC(O)[C@H]([18F])[C@@H](O)[C@@H]1O` (some centres unmarked) [^18 F-FDG, ^18 F-labeled deoxyglucose]: the “Passage through cell membrane” value is given as “passes through a cell membrane into a cell according to the glucose carrier system”; the “Phosphorylation by hexokinase inside the cell” value is “phosphorylated at the 6-position by the action of hexokinase inside the cell and is stored therein”.
